# Earlier results as cited in US8791093B2, “Pharmaceutical delivery systems for treatment of substance abuse and other addictions” (priority 2009, dated 2014).
# System: CB1 receptor
# Conditions: animals
structure (smiles),measurement,value
Cc1c(C(=O)NN2CCCCC2)nn(-c2ccc(Cl)cc2Cl)c1-c1ccc(Cl)cc1 [Rimonabant],"dopamine-releasing, discriminative and rewarding effects of Delta(9)-THC",blocks
